Test system: HCV IRES-driven translation
Format: cell-based, human

With `COc1ccc(C[C@H](N)C(=O)N[C@H]2[C@@H](O)[C@H](n3cnc4c(N(C)C)ncnc43)O[C@@H]2CO)cc1` [puromycin] the “luciferase reporter protein level (HCV IRES-driven) in Western blot” value was “inhibited”.
